The species entered for the assay is Homo sapiens. Nature of the assay: Selectivity ratio of Ki for PI3K-alpha (unknown origin) to Ki for mTOR (unknown origin).

In the case of `CCNC(=O)Nc1ccc(-c2nc3c(c(N4CCOCC4)n2)CCN(c2ncccn2)C3)cc1`, the Ratio Ki was determined as 60.
